Results as given in article PMC4601051, “Discovery of Indoline-2-carboxamide Derivatives as a New Class of Brain-Penetrant Inhibitors of Trypanosoma brucei” (Journal of Medicinal Chemistry, 2015).

Test system: T. b. brucei GVR35
Settings: 12.5 mg/kg IP b.i.d. for 5 d from 21 d post infection, female NMRI mice, n = 5
Method: For stage 2 of infection, the standard model is T. b. brucei GVR35 in which CNS infection is allowed to develop in female NMRI mice before treatment starts, requiring about 21 d.
These were carried out as previously described[27],[32] at the dose level presented and using the same dose formulation as the pharmacokinetic studies. HRN mice were used under the same infection and monitoring protocol as described for female NMRI mice.

CNC(=O)[C@H]1Cc2ccccc2N1C(=O)Cc1ccc(F)cc1 [Compound 47, (R)-1-(2-(4-Fluorophenyl)acetyl)-N-methylindoline-2-carboxamide]
cure (survival with no parasitaemia at 180 d post infection): one mouse was cured
